Results from PMC7067268, “Biosynthesis of plant tetrahydroisoquinoline alkaloids through an imine reductase route” (Chemical Science, 2019).

The chains behind the UniProt entries cited, without tags or fusion partners. Residues count along the entry.
UniProt Q948P7, 1-358: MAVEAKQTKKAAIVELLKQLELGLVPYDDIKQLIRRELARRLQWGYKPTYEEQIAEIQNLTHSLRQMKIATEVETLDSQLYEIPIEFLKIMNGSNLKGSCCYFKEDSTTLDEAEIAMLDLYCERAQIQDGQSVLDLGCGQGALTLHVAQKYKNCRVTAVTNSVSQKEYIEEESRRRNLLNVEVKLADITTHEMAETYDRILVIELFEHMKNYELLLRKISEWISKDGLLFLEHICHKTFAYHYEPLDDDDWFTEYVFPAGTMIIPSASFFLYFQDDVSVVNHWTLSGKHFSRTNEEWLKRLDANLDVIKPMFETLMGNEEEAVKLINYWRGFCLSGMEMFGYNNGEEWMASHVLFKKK

Biological target: Coclaurine N-methyltransferase (CNMT) (Coptis japonica, UniProt Q948P7)

Structure (SMILES) | Km
COc1cc2c(cc1OC)[C@H](Cc1ccccc1)NCC2 | 378 µM
COc1cc2c(cc1OC)[C@H](c1cc(OC)c(OC)c(OC)c1)NCC2 | 160 µM
COc1ccc([C@@H]2NCCc3cc(OC)c(OC)cc32)cc1OC | 289 µM
